This is a selection; strong and weak results do not stand in their true shares. Results filed as inconclusive are left out. Entries that show only a call come without a potency. Active and inactive are the calls of the source. Calls come from the whole dose curve; as a rule, active = well fitted inhibition curve with a large enough effect; inconclusive = small, poorly fitted or top-dose-only effect, or another doubt; inactive = no such curve, though single readings can be large or run the other way.
What follows are compounds tested against DNA polymerase eta (Homo sapiens) (UniProt Q9Y253) (assay: qHTS for Inhibitors of Polymerase Eta). Conditions: recombinant Pol eta, fluorescent DNA replication assay; series mostly up to 114 µM.
Potency is the fitted concentration of half-maximal effect.

Sequences of proteins named here, by UniProt entry; tags and fusion partners are left off. A change or cut given only in a name is not applied to a line headed by its entry.
UniProt Q9Y253: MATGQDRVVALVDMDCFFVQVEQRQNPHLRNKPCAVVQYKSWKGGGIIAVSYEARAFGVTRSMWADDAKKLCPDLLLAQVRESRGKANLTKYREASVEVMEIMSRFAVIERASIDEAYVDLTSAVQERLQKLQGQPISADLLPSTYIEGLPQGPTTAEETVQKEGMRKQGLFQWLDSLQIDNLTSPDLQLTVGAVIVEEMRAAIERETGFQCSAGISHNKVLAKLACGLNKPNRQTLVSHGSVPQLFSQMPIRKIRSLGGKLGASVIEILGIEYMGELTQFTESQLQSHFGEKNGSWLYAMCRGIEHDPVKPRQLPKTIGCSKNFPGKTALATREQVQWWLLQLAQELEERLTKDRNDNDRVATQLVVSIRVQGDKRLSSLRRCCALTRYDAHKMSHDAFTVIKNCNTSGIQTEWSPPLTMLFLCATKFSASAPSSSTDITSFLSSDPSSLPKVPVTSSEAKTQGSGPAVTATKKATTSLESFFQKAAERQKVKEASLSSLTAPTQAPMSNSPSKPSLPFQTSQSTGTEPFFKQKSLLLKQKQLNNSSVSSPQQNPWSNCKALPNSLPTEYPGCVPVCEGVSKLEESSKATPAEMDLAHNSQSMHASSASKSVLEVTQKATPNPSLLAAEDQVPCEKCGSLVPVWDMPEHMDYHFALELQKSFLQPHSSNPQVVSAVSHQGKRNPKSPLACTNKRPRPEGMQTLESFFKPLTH

Compound	Potency
O=P1(Nc2nc3ccc(Cl)cc3s2)COc2ccccc2O1 (centres undefined)	inactive
CCOc1ccc(C2=NCC(CBr)S2)cc1 (centres undefined)	inactive
CC(C)(C)C(=O)NC(Sc1ccccc1)C(Cl)(Cl)Cl (centres undefined)	inactive
CCc1cc(O)c([N+](=O)[O-])c(C)c1[N+](=O)[O-]	inactive
Cc1ccccc1CN(C)C(=O)COC(=O)C(O)(c1ccccc1)c1ccccc1	inactive
C[C@H]1OP(=O)(Oc2ccccc2)C[C@@H]2O[C@@H]21 (some centres undefined)	inactive
C[C@@H]1C=CCP(=O)(Oc2ccccc2)O1 (some centres undefined)	inactive
CC(=O)c1ccc(N2CC2c2ccncc2)cc1 (centres undefined)	inactive
COC(=O)C1(C)COP(=O)(NCc2ccccc2)OC1 (centres undefined)	inactive
CC(=O)Nc1ccc([As](=O)(O)O)c(O)c1	inactive
CC(=O)Nc1ccc(Oc2c([N+](=O)[O-])cc([N+](=O)[O-])cc2[N+](=O)[O-])cc1	inactive
Cc1ccc(N/C(=N/P(=O)(N2CCOCC2)N2CCOCC2)N2CCOCC2)cc1	inactive
NC(=O)c1cc([N+](=O)[O-])cc([N+](=O)[O-])c1N	inactive
CN1CCCC(OC(=O)C(c2ccccc2)c2ccccc2)C1 (centres undefined)	inactive
COc1ccccc1OP(=O)(Nc1ccc(C)cn1)Oc1ccccc1OC	inactive
Cc1ccc(OP(=O)(Nc2nccs2)Oc2ccc(C)cc2)cc1	inactive
Oc1ccccc1CNc1ccccn1	inactive
O=C(NC(Sc1ccncn1)C(Cl)(Cl)Cl)c1ccccc1 (centres undefined)	inactive
Nc1cc(N)c2nonc2c1[N+](=O)[O-]	inactive
CC(C)CC(=O)NC(Sc1ccc(Cl)cc1)C(Cl)(Cl)Cl (centres undefined)	inactive
O=P(Nc1nc2ccc(Cl)cc2s1)(c1ccccc1)c1ccccc1	inactive
CN(C)P(=O)(N(C)C)n1c(Nc2ccccc2)nnc1-c1ccccc1	inactive
CC(=O)Nc1ccc([As](=O)(O)O)cc1	inactive
O=C(O)c1ccccc1[As](=O)(O)O	inactive
CCCC1OP(N)(=O)OCC1CC (centres undefined)	inactive

Compound	Potency
Cc1cc(SC(NC(=O)c2ccc(F)cc2)C(Cl)(Cl)Cl)ncn1 (centres undefined)	inactive
CCOP(=O)(Nc1ccccc1)OCC	inactive
CN(C(=O)Cc1ccc(Cl)c(Cl)c1)[C@H]1CCCC[C@@H]1N1CCCC1	inactive
Cc1ccc(NP(=O)(Oc2ccccc2F)Oc2ccccc2F)nc1	inactive
Nc1cccc2ccc([As](=O)(O)O)cc12	active: 22.4 µM
CCN(N=Nc1nonc1N)c1nonc1N	inactive
O=P1(N(CCCl)CCCl)OCCCS1 (centres undefined)	inactive
O=C(Nc1cc([As](=O)(O)O)ccc1O)c1ccccc1	inactive
O=[N+]([O-])c1ncn(CCn2ncnc2[N+](=O)[O-])n1	inactive
CC(C)(C)C(=O)NC(Sc1ccncn1)C(Cl)(Cl)Cl (centres undefined)	inactive
O=C(O)CNc1ccc([As](=O)(O)O)cc1	inactive
COC(=O)C1(C)COP(=O)(Nc2ccccc2)OC1 (centres undefined)	inactive
O=[N+]([O-])c1cccc(NC2=NCC(CBr)S2)c1 (centres undefined)	inactive
COc1ccc(C2=NCC(CBr)S2)cc1 (centres undefined)	inactive
Cc1ccc(NP(=O)(Oc2ccccc2)Oc2ccccc2)nc1	inactive
CC(=O)N1C2C3N(C(C)=O)C1C1N(C(C)=O)C(C(N1C(C)=O)N3C(C)=O)N2C(C)=O	inactive
O=[N+]([O-])c1cccc2n[nH]nc12	inactive
CCN(/C(=N/P(=O)(N1CCOCC1)N1CCOCC1)N1CCOCC1)c1ccc(OC)cc1	inactive
Nc1ccc([As](=O)(O)c2ccc(N)cc2)cc1	inactive
CC1CCN(C(=O)Oc2c(Cl)cc(Cl)c3cccnc23)CC1	inactive
c1cc(-c2nn[nH]n2)ccc1-c1nn[nH]n1	inactive
CC(C)c1nc(Nc2ccccc2)n(P(=O)(N(C)C)N(C)C)n1	inactive
CC(C)=N/N=C(\N)N[N+](=O)[O-]	inactive
CN(C)C(=O)OCCc1n(C)cc[n+]1C	inactive

Reference: PubChem BioAssay AID588591 (National Center for Advancing Translational Sciences (NCATS), 2011)
